Results from PMC1971568 (British Journal of Cancer, 1990).

Key:
[1] = Plasma protein binding, Centrifree micropartition filters, mouse plasma; details: pooled mouse plasma, 2.5 µg ml-1, ± s.e.
[2] = Plasma protein binding, Centrifree micropartition filters, human plasma; details: 2.5 µg ml-1, ± s.e.
[3] = for Ratio of AUCs, active drug (generated from prodrug) to unconverted prodrug: Table VII
[4] = tested on: human JAR choriocarcinoma cell line; details: ref Springer et al., 1990; cited from earlier work
[5] = Active drug levels after A5B7-F(ab')2:CPG2 followed by prodrug i.v. 6 days later, non-tumour bearing mice; details: prodrug 160 mg kg-1 i.v., Table VIII
[6] = Stability in phosphate buffered saline (pH 7.4) at 37C, HPLC; details: pH 7.4, 37C
[7] = plasma, conjugate then prodrug 16 mg kg-1 i.v. 72 h later, Table V

For `O=C(O)c1ccc(N(CCCl)CCCl)cc1`, the “Bound to plasma proteins” value [1] was 97%, the “Bound to plasma proteins” value [2] was 96% and the AUC in liver (liver, 41 µmol kg-1 i.p. of the compound itself) was 39 µg·h/g. The “t1/2 alpha, initial half life” value (plasma, 41 µmol kg-1 i.p.) was 22.2 min, the “t1/2 beta, final half life” value (plasma, 41 µmol kg-1 i.p.) was 1.61 h and the “Time after prodrug injection at which active drug is measurable” value ([3]; all tissues, conjugate 1,000 U kg-1 given earlier) was ≤ 5 min. For the same compound, the “Ratio of AUCs, active drug (generated from prodrug) to unconverted prodrug” value (“Ratio of AUCs, active drug” below) ([3]; kidney) was 5.5, the “Ratio of AUCs, active drug” value ([3]; liver) was 4.2 and the “AUC of generated active drug in liver” value ([3]; liver, conjugate then prodrug 16 mg kg-1 i.v. 72 h later) was 29 µg·h/g. The “Ratio of AUCs, active drug” value ([3]; lung) was 1.3, the “t1/2 alpha, initial half life” value [3, 7] was 22.2 min and the “t1/2 beta, final half life” value [3, 7] was 2.71 h. The “Ratio of AUCs, active drug” value ([3]; tumour, prodrug assumed at limit of detection 0.2 µg h g-1) was 29, the “Cytotoxicity to JAR cells relative to prodrug” value [4] was “over 100 times” and the Active drug level ([5]; liver, 5 min) was 25.4 µg/g. It also gave an Active drug level ([5]; liver, 15 min) of 26.9 µg/g, an Active drug level ([5]; liver, 30 min) of 25.8 µg/g and an Active drug level ([5]; lung, 5 min) of 36.4 µg/g. The Active drug level ([5]; lung, 15 min) was 18.2 µg/g, the Active drug level ([5]; lung, 30 min) was 14.4 µg/g and the Active drug level ([5]; plasma, 5 min) was 133.0 µg/mL. For the same compound, the Active drug level ([5]; plasma, 15 min) was 49.0 µg/mL, the Active drug level ([5]; plasma, 30 min) was 40.5 µg/mL and the “Half life in phosphate buffered saline” value [6] was 10 h.

Where two headings read alike, the source gives them in different places.
